≈ marks a conversion by molar mass, not a printed value.
Assays:
Assay type in all cases: functional
Pseudomonas aeruginosa [1] = assay: Selectivity ratio of IC50 for OM pore producing Pseudomonas aeruginosa to IC50 for efflux pump lacking/OM pore producing Pseudomonas aeruginosa
Summary of the method: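 Efflux impact ratio (P/PE) is the M9-MOPS growth IC50 in the pore-producing strain divided by that in the efflux-lacking/pore-producing strain. Any IC50 >100 for the efflux-lacking or pore strain was set to 100 before computing.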

Pseudomonas aeruginosa [2] = assay: Selectivity ratio of IC50 for efflux pump lacking Pseudomonas aeruginosa to IC50 for efflux pump lacking/OM pore producing Pseudomonas aeruginosa
Summary of the method: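 OM impact ratio (E/PE) is the M9-MOPS growth IC50 in the efflux-lacking strain divided by that in the efflux-lacking/pore-producing strain. Any IC50 >100 for the efflux-lacking or pore strain was set to 100 before computing.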

Staphylococcus aureus = assay: Antibacterial activity against Staphylococcus aureus ATCC 25923 incubated for 24 hrs by twofold serial dilution method
Summary of the method: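 MICs by twofold serial dilution in 96-well plates from 10 mM DMSO stocks. Cultures grown in the indicated media; for E. coli, A. baumannii and P. aeruginosa, inducers were 0.1% arabinose, 1% arabinose and 0.1 mM IPTG respectively.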

SMILES: N/C(=N/O)c1ccc(-c2ccc(N3C[C@H](CO)OC3=O)cc2F)cc1
- Ratio IC50 (Pseudomonas aeruginosa [1]): 36

SMILES: O=C1O[C@@H](CO)CN1c1ccc(-c2ccc(C(F)(F)F)cc2)c(F)c1
- Ratio IC50 (Pseudomonas aeruginosa [1]): > 72
- Ratio IC50 (Pseudomonas aeruginosa [2]): 6

SMILES: O=C(O)c1ccc(-c2ccc(N3C[C@H](CO)OC3=O)cc2F)cc1
- Ratio IC50 (Pseudomonas aeruginosa [1]): > 11
- Ratio IC50 (Pseudomonas aeruginosa [2]): > 112

SMILES: C[n+]1ccccc1-c1ccc(-c2ccc(N3C[C@H](CO)OC3=O)cc2F)cc1
- Ratio IC50 (Pseudomonas aeruginosa [1]): 13
- Ratio IC50 (Pseudomonas aeruginosa [2]): 7

SMILES: O=C1O[C@@H](CO)CN1c1ccc(-c2ccc(CO)cc2)c(F)c1
- Ratio IC50 (Pseudomonas aeruginosa [1]): > 18

SMILES: Cc1ccc(-c2ccc(N3C[C@H](CO)OC3=O)cc2F)cc1
- Ratio IC50 (Pseudomonas aeruginosa [1]): > 26

SMILES: O=C1O[C@@H](CO)CN1c1ccc(-c2ccc(F)cc2)c(F)c1
- Ratio IC50 (Pseudomonas aeruginosa [1]): 40

SMILES: O=C1O[C@@H](CO)CN1c1ccc(-c2cccc(CO)c2)c(F)c1
- Ratio IC50 (Pseudomonas aeruginosa [1]): > 8

SMILES: O=C1O[C@@H](CO)CN1c1ccc(-c2ccncc2)c(F)c1
- Ratio IC50 (Pseudomonas aeruginosa [1]): 16

SMILES: O=Cc1ccc(-c2ccc(N3C[C@H](CO)OC3=O)cc2F)cc1
- Ratio IC50 (Pseudomonas aeruginosa [1]): > 254
- Ratio IC50 (Pseudomonas aeruginosa [2]): 49

SMILES: O=C1O[C@@H](CO)CN1c1ccc(-c2ccc(SC(F)(F)F)cc2)c(F)c1
- Ratio IC50 (Pseudomonas aeruginosa [1]): > 14
- Ratio IC50 (Pseudomonas aeruginosa [2]): 11

SMILES: O=C1O[C@@H](CO)CN1c1ccc(-c2ccc(-c3ccncc3)cc2)c(F)c1
- Ratio IC50 (Pseudomonas aeruginosa [1]): > 104
- Ratio IC50 (Pseudomonas aeruginosa [2]): 92

SMILES: O=C1O[C@@H](CO)CN1c1ccc(-c2cccnc2)c(F)c1
- Ratio IC50 (Pseudomonas aeruginosa [1]): 12

SMILES: COc1ccc(-c2ccc(N3C[C@H](CO)OC3=O)cc2F)cc1
- Ratio IC50 (Pseudomonas aeruginosa [1]): > 82

SMILES: O=C1O[C@@H](CO)CN1c1ccc(-c2ccc3ccncc3c2)c(F)c1
- Ratio IC50 (Pseudomonas aeruginosa [1]): > 1130
- Ratio IC50 (Pseudomonas aeruginosa [2]): > 1110

SMILES: CC(C)c1ccc(-c2ccc(N3C[C@H](CO)OC3=O)cc2F)c(C(C)C)c1
- Ratio IC50 (Pseudomonas aeruginosa [1]): 309

SMILES: NCc1ccc(-c2ccc(N3C[C@H](CO)OC3=O)cc2F)cc1O
- Ratio IC50 (Pseudomonas aeruginosa [1]): 259
- MIC (Staphylococcus aureus): 12.5 µM (≈ 4.15 µg/mL)
- Ratio IC50 (Pseudomonas aeruginosa [2]): 14

SMILES: O=C1O[C@@H](CO)CN1c1ccc(C#Cc2cc(Cl)cc(Cl)c2)c(F)c1
- Ratio IC50 (Pseudomonas aeruginosa [1]): > 6

SMILES: O=C1O[C@@H](CO)CN1c1ccc(-c2ccc(OC(F)(F)F)cc2)c(F)c1
- Ratio IC50 (Pseudomonas aeruginosa [2]): 6

SMILES: C[n+]1ccc(-c2ccc(N3C[C@H](CO)OC3=O)cc2F)cc1
- Ratio IC50 (Pseudomonas aeruginosa [1]): 6
- Ratio IC50 (Pseudomonas aeruginosa [2]): 5

SMILES: O=C1O[C@@H](CO)CN1c1ccc(-c2ccc3c(c2)OCO3)c(F)c1
- Ratio IC50 (Pseudomonas aeruginosa [1]): > 309
- Ratio IC50 (Pseudomonas aeruginosa [2]): 7

SMILES: O=C1O[C@@H](CO)CN1c1ccc(-c2cc[n+](Cc3ccccc3)cc2)c(F)c1
- Ratio IC50 (Pseudomonas aeruginosa [1]): 38

SMILES: O=C1O[C@@H](CO)CN1c1ccc(-c2ccccc2)c(F)c1
- Ratio IC50 (Pseudomonas aeruginosa [1]): 9
